Laboratory results: patent US12247227B2, “Methods relating to intestinal organ-on-a-chip” (PRESIDENT AND FELLOWS OF HARVARD COLLEGE, priority 2016, dated 2025)

Tested on: small intestine-on-chip (primary human intestinal epithelium with or without HIMEC endothelium)
Assay: Assessment of intestinal barrier function: apparent permeability (Papp) of fluorescent tracers from apical to basal channel
Conditions: at optimal Papp
Source text: As used herein, “differentially permeable”, e.g., in reference to an intestinal barrier, refers to the intestinal barrier displaying a resistance to the passage of certain molecules as compared to monolayers of, e.g., endothelial cells or undifferentiated intestinal epithelial cells. […] Such assays are described in the Examples herein in detail. Briefly, the apical side of the intestinal barrier is contacted with one or more tracer molecules and the concentration of the tracer later found on the basal side of the intestinal barrier.
• PROCEDURE. […]
Intestinal functional assessment and cytokine measurements. […] The concentration of dye that diffused through the membrane into endothelial channel was measured in the effluent, and apparent paracellular permeability (Papp) was calculated using the following formula:
[formula] where Vrec is volume receiver (endothelial compartment), Crec concentration receiver, A the seeded area and Cdon concentration donor (epithelial compartment). Cytokines released in the medium were quantified using U-PLEX Biomarker Assays for human Fractalkine, GM-CSF, IFN-γ, IL-1α, IL-1β, IL-6, IL-8, and IL-10 (Mesoscale Discovery).

In the case of “Dextran, Texas Red, 40,000 Da MW, Neutral”, the “tracer leakage into the basal channel” value is reported as 0.1-0.2%.
